Source: ChEMBL document CHEMBL3390842 (Medchemcomm, 2012)

By UniProt entry, the sequences of proteins in these tests, tags left out.
UniProt Q9HC97, whole entry: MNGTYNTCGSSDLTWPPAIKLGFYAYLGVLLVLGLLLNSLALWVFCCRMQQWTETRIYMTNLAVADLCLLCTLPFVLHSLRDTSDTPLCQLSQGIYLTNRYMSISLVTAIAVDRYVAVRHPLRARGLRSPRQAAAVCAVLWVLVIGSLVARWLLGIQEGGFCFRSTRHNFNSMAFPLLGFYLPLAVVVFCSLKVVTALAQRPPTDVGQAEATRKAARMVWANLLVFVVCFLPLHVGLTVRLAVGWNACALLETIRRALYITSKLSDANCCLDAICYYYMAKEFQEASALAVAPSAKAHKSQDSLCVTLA

Tests used:
[1] = biological target: T1, G-protein coupled receptor 35 (Homo sapiens, UniProt Q9HC97); settings: u2os
[2] = biological target: T1, G-protein coupled receptor 35; settings: ht-29

Nc1cc([N+](=O)[O-])cc([N+](=O)[O-])c1O
EC50 [1]: 5.37 µM | EC50 [2]: 0.19 µM
